Results: ChEMBL document CHEMBL1136171, “Acetylenic TACE inhibitors. Part 1. SAR of the acyclic sulfonamide hydroxamates” (Bioorg Med Chem Lett, 2003)

Sequences of proteins named here, by UniProt entry; tags and fusion partners are left off. A change or cut given only in a name is not applied to a line headed by its entry.
UniProt P78536: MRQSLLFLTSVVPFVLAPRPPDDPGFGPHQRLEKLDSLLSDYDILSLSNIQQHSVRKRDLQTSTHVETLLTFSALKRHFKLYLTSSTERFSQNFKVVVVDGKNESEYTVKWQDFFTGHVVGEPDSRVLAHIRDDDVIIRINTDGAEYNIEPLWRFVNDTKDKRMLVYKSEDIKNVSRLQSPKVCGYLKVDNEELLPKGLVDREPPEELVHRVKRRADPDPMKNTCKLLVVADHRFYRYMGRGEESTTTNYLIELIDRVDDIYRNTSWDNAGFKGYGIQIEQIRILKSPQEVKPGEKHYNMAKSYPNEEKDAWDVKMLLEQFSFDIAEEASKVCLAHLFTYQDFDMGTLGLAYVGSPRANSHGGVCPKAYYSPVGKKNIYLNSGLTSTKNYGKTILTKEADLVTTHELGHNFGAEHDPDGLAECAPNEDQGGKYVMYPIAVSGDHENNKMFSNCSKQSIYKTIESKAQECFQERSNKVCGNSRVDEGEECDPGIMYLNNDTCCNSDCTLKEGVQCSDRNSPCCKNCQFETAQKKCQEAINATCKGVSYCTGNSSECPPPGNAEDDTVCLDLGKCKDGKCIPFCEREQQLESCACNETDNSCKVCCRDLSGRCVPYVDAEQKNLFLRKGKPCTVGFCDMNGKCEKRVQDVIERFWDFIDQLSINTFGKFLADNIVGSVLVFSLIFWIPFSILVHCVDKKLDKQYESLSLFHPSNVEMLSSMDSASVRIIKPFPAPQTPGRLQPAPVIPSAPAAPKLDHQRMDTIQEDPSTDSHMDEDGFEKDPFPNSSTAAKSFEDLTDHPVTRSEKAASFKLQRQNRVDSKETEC

Experiments:
[1] = target: Disintegrin and metalloproteinase domain-containing protein 17 (Homo sapiens, UniProt P78536); test: In vitro inhibition of tumor necrosis factor-alpha converting enzyme
Collagenase 3 = Collagenase 3 (Homo sapiens, UniProt P45452)
Interstitial collagenase = target: T1, Interstitial collagenase (Homo sapiens, UniProt P03956); test: In vitro inhibition of Matrix metalloprotein 1
T1 sequence (P03956 whole entry): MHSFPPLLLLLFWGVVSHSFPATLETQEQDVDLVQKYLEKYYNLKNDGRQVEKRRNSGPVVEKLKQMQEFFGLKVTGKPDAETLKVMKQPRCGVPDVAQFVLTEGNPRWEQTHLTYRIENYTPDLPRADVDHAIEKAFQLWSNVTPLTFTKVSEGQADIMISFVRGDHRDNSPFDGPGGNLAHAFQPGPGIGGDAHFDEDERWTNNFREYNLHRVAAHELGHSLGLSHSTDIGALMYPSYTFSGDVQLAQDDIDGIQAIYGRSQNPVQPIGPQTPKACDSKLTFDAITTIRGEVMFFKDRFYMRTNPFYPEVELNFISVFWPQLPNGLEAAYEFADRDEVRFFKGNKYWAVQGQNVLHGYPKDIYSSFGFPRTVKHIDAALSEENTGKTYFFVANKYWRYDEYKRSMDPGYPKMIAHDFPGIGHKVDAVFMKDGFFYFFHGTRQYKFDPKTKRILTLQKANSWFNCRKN

Row | SMILES | IC50 (Collagenase 3) | also measured
1 | CC#CCOc1ccc(S(=O)(=O)N(C)C(CSCc2cccnc2)C(=O)NO)cc1 (centres undefined) |  | IC50 [1]: 0.006 µM
2 | CC#CCOc1ccc(S(=O)(=O)N[C@@H](C(=O)NO)c2ccc(OCCNC)cc2)cc1 | 0.146 µM | 
3 | CC#CCOc1ccc(S(=O)(=O)N(C)C(C(=O)NO)C(C)(C)SCc2cccnc2)cc1 (centres undefined) |  | IC50 (Interstitial collagenase): 0.009 µM
4 | CC#CCOc1ccc(S(=O)(=O)N(C)[C@@H](C(=O)NO)c2ccc(OCCNC)cc2)cc1 | 0.027 µM | 
